Measured values taken from patent US20140370035A1.

Columns and labels:
[1] = target: human von Willebrand factor (human) (UniProt P04275); experiment: SPR (BIAcore); FVIII protein as analyte, hvWf as ligand; N=5; KD = off-rate/on-rate
[2] = target: human von Willebrand factor (human) (UniProt P04275); experiment: SPR (BIAcore); FVIII protein as analyte, hvWf as ligand; N=5

| Substance | Kd [1] | koff [2] | kon [2] |
| --- | --- | --- | --- |
| Single chain rFVIIIFc (non-processed isoform purified from rFVIIIFc DS) (from UniProt P0DOX5 223-449) (Fc fusion) | 1.28 nM | 0.00109 s⁻¹ | 866000 M⁻¹ s⁻¹ |
| rFVIIIFc DS (recombinant B-domain deleted FVIII-Fc monomer hybrid, drug substance) (from UniProt P0DOX5 223-449) (Fc fusion) | 1.64 nM | 0.00125 s⁻¹ | 792000 M⁻¹ s⁻¹ |
